Columns and labels:
DLD-1 BRCA2(−/−) cells = test: Cell growth inhibition assay (CellTiter-Glo cell viability, 7 days); settings: read-out: EC50 DLD-1 BRCA2 (—/—)
Source text: (§1) The objective of this study is to evaluate the effect of invention compounds on cell proliferation through the cell viability assay in DLD-1 BRCA2(−/−) and parental isogenic pair and MDA-MB-436 (mutated BRCA1) cell lines. The CellTiter-Glo (CTG) based cell viability assay is designed to determine the number of viable cells in the culture because of compound effect, by quantifying ATP, which indicates the presence of metabolically active cells.
(§2) DLD-1 BRCA2(−/−) and parental isogenic pair were cultured in RPMI 1640 supplemented with 10% fetal bovine serum (FBS), and MDA-MB-436 cells were cultured in DMEM supplemented with 10% FBS. Both are culture at 37° C. with 5% CO2. Invention compounds were distributed to the 384 well plate (Corning, 3764) using Echo acoustic liquid handler to form a 1:3 serially diluted final concentration with top dose of 10 or 30 μM. The cells were seeded into the plate in the density of 50 cells/well (DLD-1 parental), 200 cells/well (DLD-1 BRCA2−/−), or 500 cells/well (MDA-MB-436). After a short spun, the cells were cultured in a well moisturized incubator at 37° C. with 5% CO2 for 7 days without disturbance. The cell viability was measured by CellTiter Glo 2.0 assay kit (Promega, G9243), and growth inhibition rate was calculated and plotted against final compound concentration, and the data were fitted in Xfit to generate IC50.

Chains of the proteins cited; added tags and fusions are not shown.
UniProt P09874, whole entry: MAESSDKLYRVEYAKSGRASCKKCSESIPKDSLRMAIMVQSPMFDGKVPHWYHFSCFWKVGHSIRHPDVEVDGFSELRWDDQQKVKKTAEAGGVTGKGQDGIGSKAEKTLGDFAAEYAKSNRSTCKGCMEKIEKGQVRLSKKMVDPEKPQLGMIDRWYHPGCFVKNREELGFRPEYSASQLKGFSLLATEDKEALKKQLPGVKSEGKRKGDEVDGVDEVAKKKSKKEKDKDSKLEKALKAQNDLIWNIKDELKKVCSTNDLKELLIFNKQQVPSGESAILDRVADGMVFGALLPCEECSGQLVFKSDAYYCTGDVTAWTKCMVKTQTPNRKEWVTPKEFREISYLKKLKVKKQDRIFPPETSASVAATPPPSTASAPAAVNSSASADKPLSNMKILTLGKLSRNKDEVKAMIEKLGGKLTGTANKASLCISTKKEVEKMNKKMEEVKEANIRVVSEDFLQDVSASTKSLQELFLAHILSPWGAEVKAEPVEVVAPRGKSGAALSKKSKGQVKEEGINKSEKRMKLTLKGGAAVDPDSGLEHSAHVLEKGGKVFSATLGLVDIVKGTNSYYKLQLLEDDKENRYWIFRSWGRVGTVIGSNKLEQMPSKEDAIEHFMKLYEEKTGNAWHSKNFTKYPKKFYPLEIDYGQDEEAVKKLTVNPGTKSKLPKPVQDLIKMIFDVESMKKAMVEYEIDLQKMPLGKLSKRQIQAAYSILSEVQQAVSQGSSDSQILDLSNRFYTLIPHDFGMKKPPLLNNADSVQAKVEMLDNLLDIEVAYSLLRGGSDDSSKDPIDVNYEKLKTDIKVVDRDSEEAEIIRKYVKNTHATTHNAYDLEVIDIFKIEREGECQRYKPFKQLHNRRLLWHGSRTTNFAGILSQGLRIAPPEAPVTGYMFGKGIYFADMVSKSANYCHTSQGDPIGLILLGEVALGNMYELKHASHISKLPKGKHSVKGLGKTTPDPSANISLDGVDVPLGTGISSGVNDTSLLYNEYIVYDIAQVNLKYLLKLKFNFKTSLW
UniProt Q9UGN5, whole entry: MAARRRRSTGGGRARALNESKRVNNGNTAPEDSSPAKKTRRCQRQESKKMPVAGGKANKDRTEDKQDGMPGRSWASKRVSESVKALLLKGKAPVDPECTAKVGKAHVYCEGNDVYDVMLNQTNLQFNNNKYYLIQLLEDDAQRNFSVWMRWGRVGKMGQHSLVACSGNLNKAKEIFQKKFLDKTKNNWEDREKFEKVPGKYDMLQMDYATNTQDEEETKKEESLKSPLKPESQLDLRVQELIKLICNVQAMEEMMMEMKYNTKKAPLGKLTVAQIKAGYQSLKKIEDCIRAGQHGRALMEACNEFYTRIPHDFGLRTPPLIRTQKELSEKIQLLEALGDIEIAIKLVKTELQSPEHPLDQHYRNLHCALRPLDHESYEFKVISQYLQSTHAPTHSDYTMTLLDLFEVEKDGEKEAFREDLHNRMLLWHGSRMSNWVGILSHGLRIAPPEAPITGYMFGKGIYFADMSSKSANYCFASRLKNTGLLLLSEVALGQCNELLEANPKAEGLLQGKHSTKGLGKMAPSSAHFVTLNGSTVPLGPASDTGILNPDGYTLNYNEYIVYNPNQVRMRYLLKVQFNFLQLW

[1] = system: MDA-MB-436 (mutated BRCA1) cells; test: as above; settings: read-out: EC50 MDA-MB-436, MDA-MB-436, 7 days
Source text: as §1, §2

PARP1 = PARP1 (Homo sapiens (Human), UniProt P09874); test: Biochemical fluorescent polarization (FP) assay, displacement of PARPi-FL; settings: read-out: IC50 FP PARP1; 20 nM protein, 3 nM PARPi-FL, 4 h at room temperature
PARP2 = PARP2 (Homo sapiens (Human), UniProt Q9UGN5); test: as above; settings: read-out: IC50 FP PARP2; 20 nM protein, 3 nM PARPi-FL, 4 h at room temperature

EC50 (DLD-1 BRCA2(−/−) cells): 63 nM
EC50 [1]: 14 nM
IC50 (PARP1): 13 nM
IC50 (PARP2): 13000 nM
SMILES: N#Cc1ccc(OC2CN(Cc3cnc4cc(C5CC5)c(=O)[nH]c4c3)C2)cn1
